# What was measured:
# Protein sequences, listed by entry. Tags and fused reporters are not part of them.
# UniProt P41143, whole entry, looked up: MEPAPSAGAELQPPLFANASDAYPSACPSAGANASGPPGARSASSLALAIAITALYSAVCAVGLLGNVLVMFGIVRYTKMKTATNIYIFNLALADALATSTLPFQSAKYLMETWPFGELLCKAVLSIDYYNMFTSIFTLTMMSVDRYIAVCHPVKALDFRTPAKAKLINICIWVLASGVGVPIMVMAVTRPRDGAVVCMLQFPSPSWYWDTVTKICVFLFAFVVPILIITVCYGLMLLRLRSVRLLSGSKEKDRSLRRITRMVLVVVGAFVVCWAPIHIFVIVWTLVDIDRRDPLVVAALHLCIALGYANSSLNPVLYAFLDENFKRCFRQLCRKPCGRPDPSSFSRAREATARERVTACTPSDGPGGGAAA
# Homo sapiens [1] = organism: Homo sapiens; test: Selectivity ratio of Ki for human MOP receptor to Ki for human NOP receptor
# Homo sapiens [2] = organism: Homo sapiens; test: Selectivity ratio of Ki for human NOP receptor to Ki for human MOP receptor
# [3] = biological target: Delta-type opioid receptor (Homo sapiens) (UniProt P41143); test: Partial agonist activity at human DOP receptor expressed in CHO cells assessed as maximal stimulation of [35S]GTPgammaS binding after 60 mins by scintillation counting relative to DPDPE
Compound,Ratio Ki (Homo sapiens [1]),Ratio Ki (Homo sapiens [2]),Activity [3] [%]
CO[C@]12CC[C@@]3(C[C@@H]1[C@](C)(O)CC(C)(C)C)[C@H]1Cc4ccc(O)c5c4[C@@]3(CCN1CC1CC1)[C@H]2O5,50,10,–
CCC(C)(C)[C@](C)(O)[C@H]1C[C@@]23CC[C@]1(OC)[C@@H]1Oc4c(O)ccc5c4[C@@]12CCN(CC1CC1)[C@@H]3C5,50,–,–
C[C@@H](NC(=O)[C@@H](N)Cc1ccc(O)cc1)C(=O)NCC(=O)N(C)[C@@H](Cc1ccccc1)C(=O)NCCO,50,–,–
CO[C@@]12CC[C@@]3(C[C@@H]1[C@](C)(O)C(C)(C)C)[C@H]1Cc4ccc(O)c5c4[C@@]3(CCN1CC1CC1)[C@H]2O5,–,–,21
CO[C@]12CC[C@@]3(C[C@@H]1[C@@](C)(O)C(C)(C)C)[C@H]1Cc4c(Br)cc(O)c5c4[C@@]3(CCN1CC1CC1)[C@H]2O5,50,–,–
CC1(C)SSC(C)(C)[C@@H](NC(=O)[C@@H](N)Cc2ccc(O)cc2)C(=O)NCC(=O)N[C@@H](Cc2ccccc2)C(=O)N[C@H]1C(=O)O,50,–,–
CO[C@]12CC[C@@]3(C[C@@H]1[C@@](C)(O)C(C)(C)C)[C@H]1Cc4cc(Br)c(O)c5c4[C@@]3(CCN1CC1CC1)[C@H]2O5,50,–,–
CO[C@]12CC[C@@]3(C[C@@H]1[C@@](C)(O)c1ccc(C(C)(C)C)cc1)[C@H]1Cc4ccc(O)c5c4[C@@]3(CCN1CC1CC1)[C@H]2O5,50,–,–
CO[C@]12CC[C@@]3(C[C@@H]1[C@@](C)(O)C(C)(C)C)[C@H]1Cc4c(Cl)cc(O)c5c4[C@@]3(CCN1CC1CC1)[C@H]2O5,50,–,–
CN(C(=O)Cc1ccccc1)[C@H]1CC[C@@]2(CCCO2)C[C@@H]1N1CCCC1,50,–,–

# From ChEMBL document CHEMBL1833948, “Structural determinants of opioid and NOP receptor activity in derivatives of buprenorphine” (2011)
